Test results as given in ChEMBL document CHEMBL4834423, “Discovery of AG-270, a First-in-Class Oral MAT2A Inhibitor for the Treatment of Tumors with Homozygous MTAP Deletion” (J Med Chem, 2021).

Amino acid sequences for entries named in this document (tags omitted).
UniProt P31153, whole entry, looked up: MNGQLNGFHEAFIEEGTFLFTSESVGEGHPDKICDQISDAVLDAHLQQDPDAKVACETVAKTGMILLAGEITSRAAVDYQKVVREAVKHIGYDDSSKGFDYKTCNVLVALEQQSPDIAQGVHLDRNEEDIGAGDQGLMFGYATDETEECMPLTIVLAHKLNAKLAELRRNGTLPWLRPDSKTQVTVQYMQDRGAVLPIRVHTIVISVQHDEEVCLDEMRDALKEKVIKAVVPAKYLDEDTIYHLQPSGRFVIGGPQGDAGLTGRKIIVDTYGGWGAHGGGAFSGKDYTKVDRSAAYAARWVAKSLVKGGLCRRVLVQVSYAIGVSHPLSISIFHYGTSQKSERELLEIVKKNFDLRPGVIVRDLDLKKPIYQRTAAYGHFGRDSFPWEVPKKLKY

Biological target: S-adenosylmethionine synthase isoform type-2 (Homo sapiens, UniProt P31153)
Assay: Inhibition of recombinant human MAT2A expressed in baculovirus infected Sf9 cells assessed as S-adenosyl methionine production using L-methionine as substrate incubated for 60 mins followed by substrate addition and measured after 60 mins relative to control
Parameters: concentration or dose not given beside the values

Question: `Cc1cc(=O)n2nc(C3=CCCCC3)c(-c3ccccc3)c2[nH]1` was tested. Which inhibition did it give?
Answer: 55%
